# Assay results taken from PubChem BioAssay (Tox21).
# By UniProt entry, the sequences of proteins in these tests, tags left out. Where a name states a change or a piece, a line headed by the entry shows the natural chain unless it says otherwise.
# UniProt P34981: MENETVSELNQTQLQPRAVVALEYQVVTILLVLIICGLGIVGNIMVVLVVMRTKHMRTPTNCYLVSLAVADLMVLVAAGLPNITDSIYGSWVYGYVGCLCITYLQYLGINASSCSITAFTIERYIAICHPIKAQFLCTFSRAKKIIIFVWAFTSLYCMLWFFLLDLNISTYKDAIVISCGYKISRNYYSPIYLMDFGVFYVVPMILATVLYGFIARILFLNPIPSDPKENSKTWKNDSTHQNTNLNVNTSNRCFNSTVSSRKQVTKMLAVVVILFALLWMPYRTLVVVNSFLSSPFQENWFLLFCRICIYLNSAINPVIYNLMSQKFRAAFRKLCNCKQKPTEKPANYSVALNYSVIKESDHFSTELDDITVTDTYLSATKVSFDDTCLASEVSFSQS
# UniProt P10275: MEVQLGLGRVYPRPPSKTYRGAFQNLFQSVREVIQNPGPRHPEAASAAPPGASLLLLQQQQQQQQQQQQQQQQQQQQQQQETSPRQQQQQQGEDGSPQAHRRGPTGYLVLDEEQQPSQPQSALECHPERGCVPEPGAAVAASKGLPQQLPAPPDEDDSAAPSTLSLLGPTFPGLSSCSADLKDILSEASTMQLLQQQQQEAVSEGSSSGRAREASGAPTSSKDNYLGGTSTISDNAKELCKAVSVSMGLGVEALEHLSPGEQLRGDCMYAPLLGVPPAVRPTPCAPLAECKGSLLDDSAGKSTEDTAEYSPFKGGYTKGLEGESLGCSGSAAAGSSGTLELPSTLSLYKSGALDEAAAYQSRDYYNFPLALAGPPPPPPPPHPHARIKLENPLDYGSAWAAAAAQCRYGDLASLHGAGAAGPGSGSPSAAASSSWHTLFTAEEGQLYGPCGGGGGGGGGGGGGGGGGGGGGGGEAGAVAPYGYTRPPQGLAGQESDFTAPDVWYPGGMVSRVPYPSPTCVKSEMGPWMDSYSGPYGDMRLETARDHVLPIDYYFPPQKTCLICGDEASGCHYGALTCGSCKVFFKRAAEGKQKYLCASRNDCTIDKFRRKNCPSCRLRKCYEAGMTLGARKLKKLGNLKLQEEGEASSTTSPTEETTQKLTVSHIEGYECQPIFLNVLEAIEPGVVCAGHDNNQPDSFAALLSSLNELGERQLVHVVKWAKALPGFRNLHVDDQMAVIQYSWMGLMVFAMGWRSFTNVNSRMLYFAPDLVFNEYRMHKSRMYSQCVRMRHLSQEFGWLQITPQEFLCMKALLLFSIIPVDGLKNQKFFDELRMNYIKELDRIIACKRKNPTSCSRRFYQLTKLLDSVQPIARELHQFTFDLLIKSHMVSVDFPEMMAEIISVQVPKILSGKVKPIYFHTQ
# UniProt P03372, whole entry, looked up: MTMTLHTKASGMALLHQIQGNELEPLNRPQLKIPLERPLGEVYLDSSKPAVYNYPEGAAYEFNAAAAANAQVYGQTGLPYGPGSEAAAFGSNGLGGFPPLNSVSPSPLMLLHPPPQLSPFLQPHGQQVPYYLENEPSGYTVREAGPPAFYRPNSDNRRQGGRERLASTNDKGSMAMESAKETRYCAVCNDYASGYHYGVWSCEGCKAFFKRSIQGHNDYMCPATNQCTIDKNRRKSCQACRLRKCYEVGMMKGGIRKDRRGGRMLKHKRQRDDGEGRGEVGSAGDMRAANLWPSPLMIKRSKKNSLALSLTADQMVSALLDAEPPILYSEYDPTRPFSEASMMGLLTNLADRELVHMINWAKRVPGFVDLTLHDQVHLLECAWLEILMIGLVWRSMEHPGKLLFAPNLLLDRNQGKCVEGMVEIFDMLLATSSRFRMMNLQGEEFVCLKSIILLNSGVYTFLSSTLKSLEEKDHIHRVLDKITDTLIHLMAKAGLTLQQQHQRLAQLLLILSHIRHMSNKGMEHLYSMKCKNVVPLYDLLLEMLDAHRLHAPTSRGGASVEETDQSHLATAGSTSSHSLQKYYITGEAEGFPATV
# UniProt Q92731, whole entry, looked up: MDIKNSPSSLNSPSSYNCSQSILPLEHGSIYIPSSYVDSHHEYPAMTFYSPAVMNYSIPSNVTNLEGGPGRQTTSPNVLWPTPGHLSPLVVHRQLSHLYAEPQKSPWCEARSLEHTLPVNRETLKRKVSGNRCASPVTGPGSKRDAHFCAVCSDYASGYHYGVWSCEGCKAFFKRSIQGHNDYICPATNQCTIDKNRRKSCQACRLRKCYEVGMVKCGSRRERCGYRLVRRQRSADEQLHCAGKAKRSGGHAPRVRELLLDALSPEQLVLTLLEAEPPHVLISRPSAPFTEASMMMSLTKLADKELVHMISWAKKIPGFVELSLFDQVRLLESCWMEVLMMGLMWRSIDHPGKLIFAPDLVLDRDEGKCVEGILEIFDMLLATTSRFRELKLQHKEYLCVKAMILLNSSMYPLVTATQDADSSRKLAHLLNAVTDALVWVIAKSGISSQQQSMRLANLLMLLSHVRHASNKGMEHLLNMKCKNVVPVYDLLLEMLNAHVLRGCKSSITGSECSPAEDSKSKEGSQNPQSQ
# “And” between values parts separate entries of the source, which are not always exact repeats. Equal entries are not always repeated. For some assays here: The hits were mostly taken out for another list; the other results follow. A call without a number means that no potency is given here. Results filed as inconclusive are left out. Only a part is listed here, and it is no random draw. The source made the active and inactive calls. Unless noted, the call rests on the fitted dose curve; in most records, active means well fitted curve in the direction sought with a large enough effect in the repeat runs; inconclusive means weak or mixed curves; inactive means no such curve, though single readings can be large; an effect the other way counts as inactive or inconclusive.
# Tests used:
# [1] = qHTS assay to identify small molecule antagonists of the retinoic acid receptor (RAR) signaling pathway (AID 1159552; further: nearly all actives have a fitted effect of over 50% in size; further: potency means the concentration at half of the fitted maximal effect)
# In short: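 Retinol signaling pathway inhibitors screened in C3RL4 RARE-luciferase reporter cells seeded overnight at 37 C, then compounds added with 1 uM (final) retinol as pathway substrate. After 6 hr at 37 C, luciferase luminescence read after 30 min at room temperature.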
# [2] = molecular target: Thyrotropin-releasing hormone receptor (Homo sapiens) (UniProt P34981); experiment: qHTS assay to identify small molecule antagonists of the thyrotropin-releasing hormone receptor (TRHR) signaling pathway (AID 1346877; active means well fitted inhibition curve with a large enough effect in the repeat runs, not every such curve was filed as active); details: TRHR-HEK293, TRH-induced calcium fluorescence, antagonist mode; at 23.6 µM (top of the series)
# [3] = qHTS assay to identify small molecule antagonists of the estrogen related receptor signaling pathway with the pleiotropic PPARgamma coactivator (PGC) from Tox21 10K library (AID 1224841; call rule not given here; further: actives are mostly falling curves and most rising ones were filed inactive; nearly all actives have a fitted effect of over 50% in size); details: PGC/ERR reporter cell line, ONE-Glo luciferase, 18 h; at 92.4 µM (top of the series)
# [4] = molecular target: Nuclear receptor subfamily 1 group I member 2 (Homo sapiens) (UniProt O75469); experiment: Human pregnane X receptor (PXR) small molecule agonists, qHTS assay (AID 1346982); further: nearly all actives have a fitted effect of over 35% in size
# In short: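 Stable HepG2 line reporting PXR-mediated CYP3A4 expression via luciferase. Treatment: 24 hr with compounds in DMSO at 37 C. Detection: ONE-Glo luminescence.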
# [5] = molecular target: Nuclear receptor subfamily 1 group I member 2 (Homo sapiens) (UniProt O75469); experiment: CYP3A4 induction through human pregnane X receptor (PXR) by small molecules, qHTS assay (AID 1346984); further: nearly all actives have a fitted effect of over 40% in size
# In short: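 After 24 h at 37C with compound, DPX-2 cells (HepG2, co-transfected PXR response element and CYP3A4 promoter-luciferase) got 3uM final P450-Glo Luciferin-IPA for 3 h; One-Glo luminescence followed.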
# [6] = molecular target: Nuclear receptor subfamily 1 group I member 2 (Homo sapiens) (UniProt O75469); experiment: Human pregnane X receptor (PXR) activation by small molecules, qHTS assay (AID 1346985); further: nearly all actives have a fitted effect of over 40% in size
# [7] = molecular target: Androgen receptor (Homo sapiens) (UniProt P10275); experiment: qHTS assay to identify small molecule agonists of the androgen receptor (AR) signaling pathway using the MDA cell line (AID 743040; further: nearly all actives have a fitted effect of over 20% in size); details: MDA-kb2 AR-luc cells, MMTV luciferase, 16 h; at 70.3 µM (top of the series); stronger effect = higher value
# [8] = molecular target: Androgen receptor (Homo sapiens) (UniProt P10275); experiment: qHTS assay to identify small molecule antagonists of the androgen receptor (AR) signaling pathway using the MDA cell line (AID 743042; further: nearly all actives have a fitted effect of over 55% in size; further: potency means the concentration at half of the fitted maximal effect)
# [9] = molecular target: Androgen receptor (Homo sapiens) (UniProt P10275); experiment: qHTS assay to identify small molecule antagonists of the androgen receptor (AR) signaling pathway using the MDA cell line in the presence of 0.5 nM R1881 (AID 1259243); further: nearly all actives have a fitted effect of over 50% in size; further: potency means the concentration at half of the fitted maximal effect
# [10] = molecular target: Estrogen receptor (Homo sapiens) (UniProt P03372); experiment: qHTS assay to identify small molecule antagonists of the estrogen receptor alpha (ER-alpha) signaling pathway using the BG1 cell line in the presence of 0.1 nM 17-beta-estradiol (AID 1259244); details: VM7Luc4E2 (BG1) ERE-luciferase, antagonist mode, 0.1 nM E2, 22 h; at 92.4 µM (top of the series); further: nearly all actives have a fitted effect of over 50% in size
# [11] = molecular target: Androgen receptor (Homo sapiens) (UniProt P10275); experiment: qHTS assay to identify small molecule agonists of the androgen receptor (AR) signaling pathway in the presence of an antagonist (AID 1259381; calls by dose curve; further: nearly all actives have a fitted effect of over 15% in size)
# [12] = molecular target: Estrogen receptor (Homo sapiens) (UniProt P03372); experiment: qHTS assay to identify small molecule agonists of the estrogen receptor alpha (ER-alpha) signaling pathway in the presence of an antagonist (AID 1259383; calls by dose curve; further: top concentration of the series differs between compounds; nearly all actives have a fitted effect of over 15% in size)
# [13] = molecular target: Estrogen receptor beta (Homo sapiens) (UniProt Q92731); experiment: qHTS assay to identify small molecule antagonists of the estrogen receptor beta (ER-beta) signaling pathway (AID 1259378; active means well fitted inhibition curve with a large enough effect in the signal ratio in the repeat runs, not every such curve was filed as active; the % refers to the signal ratio)
# In short: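 ER-beta-UAS-bla HEK293T cells in 2% charcoal-stripped FBS medium treated with compound plus 1nM final 17-beta-estradiol for 16 hr at 37C. Beta-lactamase reporter read by FRET substrate fluorescence after 2 hours at room temperature.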
smiles,measurement,setting,value
OC[C@@H](O)[C@@H](O[C@@H]1O[C@H](CO)[C@H](O)[C@H](O)[C@H]1O)[C@H](O)[C@@H](O)CO,Potency,[1],inactive
CN1CCCN=C1/C=C/c1cccs1,Potency,[1],inactive
same,"activity, negative = inhibition",[2],inactive: -10.6%
[O-]/[N+](=N\O)c1ccccc1,Potency,[1],inactive
same,"activity, negative = inhibition",[3],inactive: 40.9% and inactive: 12.2%
CCOc1ccc2nc3cc(N)ccc3c(N)c2c1,Potency,[1],inactive
C[C@H]1NCc2cc(-c3ccc4c(=O)c(C(=O)O)cn(C5CC5)c4c3OC(F)F)ccc21,Potency,[1],inactive
CC(N=C(NC#N)Nc1ccncc1)C(C)(C)C (centres undefined),Potency,[1],inactive
same,Potency,[4],inactive
same,Potency,[5],inactive
same,Potency,[6],inactive
O=c1c(O)c(-c2ccc(O)cc2O)oc2cc(O)cc(O)c12,Potency,[1],inactive
CC(=O)Nc1c(I)c(NC(C)=O)c(I)c(C(=O)O)c1I,Potency,[1],inactive
C[C@](N)(Cc1ccc(O)c(O)c1)C(=O)O,Potency,[1],inactive
C[C@H](N)[C@H](O)c1cccc(O)c1,Potency,[1],inactive
CC(C)c1ccc2c(c1)CC[C@H]1[C@](C)(CN)CCC[C@]21C,activity change,[7],inactive: -10.5%
same,Potency,[8],active: 17.2 µM
same,Potency,[1],active: 61.1 µM
same,Potency,[9],active: 17.2 µM
same,"activity change, negative = inhibition",[10],inactive: 0.0641%
same,Potency,[11],inactive
same,Potency,[12],inactive
CC1(C)[C@@H](O[C@H]2O[C@H](C(=O)O)[C@@H](O)[C@H](O)[C@H]2O[C@@H]2O[C@H](C(=O)O)[C@@H](O)[C@H](O)[C@H]2O)CC[C@]2(C)[C@H]3C(=O)C=C4[C@@H]5C[C@@](C)(C(=O)O)CC[C@]5(C)CC[C@@]4(C)[C@]3(C)CC[C@@H]12,Potency,[1],inactive
O=c1c(O)c(-c2ccc(O)c(O)c2)oc2cc(O)cc(O)c12,Potency,[1],inactive
COc1ccccc1OCCNCC(O)COc1cccc2[nH]c3ccccc3c12 (centres undefined),Potency,[1],inactive
CCN(C)C(=O)Oc1cccc([C@H](C)N(C)C)c1,Potency,[1],inactive
CN(C)C(=O)Oc1cccc([N+](C)(C)C)c1,Potency,[1],inactive
same,Potency,[13],inactive
C=CC[N+]1([C@H]2C[C@H]3[C@@H]4CC[C@H]5C[C@H](OC(C)=O)[C@@H](N6CCCCC6)C[C@]5(C)[C@H]4CC[C@]3(C)[C@H]2OC(=O)CC)CCCCC1,Potency,[1],inactive
CC[N+](CC)(CC)CCOc1ccc(/C=C/c2ccccc2)cc1,Potency,[1],inactive
NC(=O)CC[C@@H]1NC(=O)[C@H](Cc2ccccc2)NC(=O)[C@H](Cc2ccc(O)cc2)NC(=O)CCSSC[C@@H](C(=O)N2CCC[C@H]2C(=O)N[C@@H](CCCN=C(N)N)C(=O)NCC(N)=O)NC(=O)[C@H](CC(N)=O)NC1=O,Potency,[1],inactive
Nc1nc(-c2ccccc2)cs1,activity change,[7],inactive: 6.03%
same,Potency,[8],inactive
same,Potency,[1],inactive
same,Potency,[9],inactive
same,Potency,[11],inactive
CCOc1ccc2ccccc2c1C(=O)N[C@@H]1C(=O)N2[C@@H]1SC(C)(C)[C@@H]2C(=O)O,Potency,[1],inactive
same,Potency,[13],inactive
CCCCCCCCCCCC[N+](C)(C)CCCCCCCCCCCC,Potency,[1],active: 17.2 µM
CC(C)(C)C(=O)Oc1ccc(S(=O)(=O)Nc2ccccc2C(=O)NCC(=O)O)cc1,Potency,[1],inactive
same,Potency,[13],inactive
O=S(=O)(O)c1cccc2c(S(=O)(=O)O)cccc12,Potency,[1],inactive
same,Potency,[13],inactive
O=C(O)[C@@H]1[C@H]2C[C@H]3c4[nH]c5ccccc5c4CCN3C[C@@H]2CC[C@@H]1O,Potency,[1],inactive
